This passage reports inhibition results from PubChem BioAssay AID2825 (Sanford-Burnham Center for Chemical Genomics, 2010).

This is a selection; strong and weak results do not stand in their true shares. Activity calls are given as the source filed them.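 The calls were made as follows: active = inhibition of 50% or more; inactive = inhibition below 50%.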

The nature of the assay: blockers of yeast NLRP3/ASC/caspase-1 reporter – luminescence, uHTS, primary screen (AID 2825).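 Also: plate controls were induced DMSO wells for no effect and uninduced yeast grown without galactose for full effect.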 The settings on record: Yeast reconstituted NLRP3/ASC/caspase-1, beta-gal luminescence, 24 h; at 10 µM; hits give high values.
For `O=[N+]([O-])c1cccc2n[nH]nc12`, the inhibition is inactive: 1.79%. For `CC(=O)N1C2C3N(C(C)=O)C1C1N(C(C)=O)C(C(N1C(C)=O)N3C(C)=O)N2C(C)=O` the value was inactive: -12%.

In the case of `CCc1nc2c(n1)c1c(non1O)c1c2no[n+]1[O-]`, the inhibition was inactive: 7.22%. Under `O=[N+]([O-])c1cc([N+](=O)[O-])c(CCNc2ccccc2)c([N+](=O)[O-])c1` stands inactive: 27.7%; under `Cc1ccc(NP(=O)(Oc2ccccc2)Oc2ccccc2)nc1`, inactive: 18.1%. Take `COc1ccc(C2=NCC(CBr)S2)cc1` (configuration not stated): the inhibition was inactive: 48.6%. Under `CN(C)C(=O)OCCc1n(C)cc[n+]1C` stands inactive: 14.2%; under `CC(C)=N/N=C(\N)N[N+](=O)[O-]`, inactive: 13.6%. For `CC1CCN(C(=O)Oc2c(Cl)cc(Cl)c3cccnc23)CC1` the value was inactive: 13.2%; for `C[N+]1=C2C=CC=CC=C2SC12C([N+](=O)[O-])=CC([N+](=O)[O-])=C[C-]2[N+](=O)[O-]` (configuration not stated), inactive: 3.97%. For `Nc1ccc([As](=O)(O)c2ccc(N)cc2)cc1`, the inhibition was inactive: 17.8%.

`CCN(/C(=N/P(=O)(N1CCOCC1)N1CCOCC1)N1CCOCC1)c1ccc(OC)cc1`: the inhibition is inactive: 3.37%. Regarding `O=C(Nc1cc([As](=O)(O)O)ccc1O)c1ccccc1`, the inhibition was inactive: 14.2%. As to `O=[N+]([O-])c1cccc(NC2=NCC(CBr)S2)c1` (configuration not stated), the inhibition was inactive: 3.45%.

`CC(C)(C)C(=O)NC(Sc1ccncn1)C(Cl)(Cl)Cl` (configuration not stated): the inhibition was inactive: -14%. Under `O=[N+]([O-])c1ncn(CCn2ncnc2[N+](=O)[O-])n1` stands inactive: 3.46%; under `Cc1ccc(NP(=O)(Oc2ccccc2F)Oc2ccccc2F)nc1`, inactive: 7.69%.

For `CN(C(=O)Cc1ccc(Cl)c(Cl)c1)[C@H]1CCCC[C@@H]1N1CCCC1`, the inhibition is inactive: 23.1%. For `Cc1cc(SC(NC(=O)c2ccc(F)cc2)C(Cl)(Cl)Cl)ncn1` (configuration not stated) the value was inactive: -6.96%; for `CCOP(=O)(Nc1ccccc1)OCC`, inactive: 1.17%; for `CC(=O)Nc1ccc([As](=O)(O)O)cc1`, inactive: 8.07%. For `O=C(O)c1ccccc1[As](=O)(O)O` the value was inactive: 5.98%; for `O=P(Nc1nc2ccc(Cl)cc2s1)(c1ccccc1)c1ccccc1`, inactive: 2.95%; for `CCN(N=Nc1nonc1N)c1nonc1N`, inactive: 7.75%. For `O=[N+]([O-])c1cc([N+](=O)[O-])c(CCN2CCOCC2)c([N+](=O)[O-])c1` the value was inactive: 12%; for `Cc1ccc(OP(=O)(Nc2nccs2)Oc2ccc(C)cc2)cc1`, inactive: 4.32%.

Consider `COc1ccccc1OP(=O)(Nc1ccc(C)cn1)Oc1ccccc1OC`, for which the inhibition was inactive: 11.2%. In the case of `CN1CCCC(OC(=O)C(c2ccccc2)c2ccccc2)C1` (configuration not stated), the inhibition was inactive: 10.3%. For `Clc1ccc(Cl)c(NC2=NCC(CBr)S2)c1` (configuration not stated) the value was inactive: -1.29%. For `NC(=O)c1cc([N+](=O)[O-])cc([N+](=O)[O-])c1N` the value was inactive: 12.2%.

As to `Cc1ccc(N/C(=N/P(=O)(N2CCOCC2)N2CCOCC2)N2CCOCC2)cc1`, the inhibition is inactive: 7.72%. For `CN(C(=O)Cc1ccc(Cl)c(Cl)c1)[C@H]1CCCC[C@H]1N1CCCC1` the value was inactive: -3.66%; for `Nc1cc(N)c2nonc2c1[N+](=O)[O-]`, inactive: 6.37%.

Take `CC(C)CC(=O)NC(Sc1ccc(Cl)cc1)C(Cl)(Cl)Cl` (configuration not stated): the inhibition was inactive: 21.4%.

As for `O=C(NC(Sc1ccncn1)C(Cl)(Cl)Cl)c1ccccc1` (configuration not stated), the inhibition was inactive: -9.19%. Under `Cc1c2non([O-])c-2c(C)[n+](=O)[n+]1[O-]` stands inactive: 11.4%; under `Oc1ccccc1CNc1ccccn1`, inactive: 18.8%; under `CC(C)(C)C(=O)NC(Sc1ccccc1)C(Cl)(Cl)Cl` (configuration not stated), inactive: 10.1%. For `CCOc1ccc(C2=NCC(CBr)S2)cc1` (configuration not stated) the value was inactive: 44.5%; for `O=P1(Nc2nc3ccc(Cl)cc3s2)COc2ccccc2O1` (configuration not stated), inactive: -12%. Under `CC(=O)Nc1ccc(Oc2c([N+](=O)[O-])cc([N+](=O)[O-])cc2[N+](=O)[O-])cc1` stands inactive: 6.84%; under `CC(=O)Nc1ccc([As](=O)(O)O)c(O)c1`, inactive: -11.4%; under `CC(=O)c1ccc(N2CC2c2ccncc2)cc1` (configuration not stated), inactive: 14%. `C[C@H]1OP(=O)(Oc2ccccc2)C[C@@H]2O[C@@H]21` (some centres not stated): the inhibition is inactive: 16.4%. Take `C[C@@H]1C=CCP(=O)(Oc2ccccc2)O1` (some centres not stated): the inhibition is inactive: -2.09%.

In the case of `Cc1ccccc1CN(C)C(=O)COC(=O)C(O)(c1ccccc1)c1ccccc1`, the inhibition was inactive: 10.2%.

As for `CCNC(=S)/N=C(\N)N[N+](=O)[O-]`, the inhibition is inactive: 8.08%. Under `O=C(NC1CCS(=O)(=O)C1)NP(=S)(Oc1ccccc1)Oc1ccccc1` (configuration not stated) stands inactive: 22%. For `CCOC(=O)NC(Sc1ccccc1)C(Cl)(Cl)Cl` (configuration not stated) the value was inactive: 25.7%.

Consider `Cc1ccc(NP(=O)(Oc2cccc(C)c2)Oc2cccc(C)c2)nc1`, for which the inhibition was inactive: 20.2%. For `c1ccc(-c2nn[nH]n2)c(-c2nn[nH]n2)c1` the value was inactive: 8.26%. For `CN(C)C(=O)Oc1noc2ccccc12` the value was inactive: 14.8%. Under `CC(NC(=O)COC(=O)C(O)(c1ccccc1)c1ccccc1)c1ccccc1` (configuration not stated) stands inactive: 15.6%; under `Cc1ccccc1OP(=O)(Nc1ccccn1)Oc1ccccc1C`, inactive: -6.73%; under `Cc1ccc(OP(=O)(Nc2ccccn2)Oc2ccc(C)cc2)cc1`, inactive: 21.3%. Take `CC(=O)NC(SC(=S)N(CC(C)C)CC(C)C)C(Cl)(Cl)Cl` (configuration not stated): the inhibition is inactive: 25.1%. Under `COC(=O)c1cc2c(s1)N=C(c1ccccc1)N(C)P2(=O)N1CCOCC1` (configuration not stated) stands inactive: 13%. Under `CCC(=O)N1C2C3N(C(=O)CC)C1C1N(C(=O)CC)C(C(N1C(=O)CC)N3C(=O)CC)N2C(=O)CC` stands inactive: -2.74%; under `O=C(OC1CN2CCC1CC2)c1ccccc1` (configuration not stated), inactive: 4.72%; under `C[C@H]1OP(=O)(Oc2ccccc2)[C@H](O)[C@H](O)[C@H]1N=[N+]=[N-]` (some centres not stated), inactive: 13.2%. For `O=P(Nc1nc2ccccc2s1)(c1ccccc1)c1ccccc1` the value was inactive: 6.23%. `O=P(Nc1ccccn1)(c1ccc(Br)cc1)c1ccc(Br)cc1`: the inhibition was inactive: 14.2%.

`CN(C)C1(CNC(=O)c2ccc(Cl)c(S(N)(=O)=O)c2)CCCCC1`: the inhibition is inactive: 7.72%. Under `C(Cc1nn[nH]n1)Cc1nn[nH]n1` stands inactive: -8.3%; under `Nc1ccc([As](=O)(O)c2ccc([N+](=O)[O-])cc2)cc1`, inactive: -4.18%.

Take `O=C(OC1CN2CCC1CC2)c1cccc(Cl)c1` (configuration not stated): the inhibition was inactive: 7.06%. Under `O=[N+]([O-])c1ncn(CCn2cnc([N+](=O)[O-])n2)n1` stands inactive: 0.307%; under `O=[As](O)(c1ccccc1)c1ccc(O)cc1`, inactive: -5.17%.

Turning to `c1nnnn1CCn1cnnn1`, the inhibition is inactive: 2.17%. Under `CC(C)C(=O)NC(Sc1ccccc1)C(Cl)(Cl)Cl` (configuration not stated) stands inactive: 18.1%; under `O=P(Nc1nccs1)(c1ccccc1)c1ccccc1`, inactive: 10.8%. For `CC(C)(C)C(=O)NC(Sc1ncccn1)C(Cl)(Cl)Cl` (configuration not stated) the value was inactive: 3.85%. For `Clc1n[nH]nc1-c1nn[nH][15n]1` the value was inactive: -8.24%; for `CCOP(=O)(Nc1ccc(C)cn1)OCC`, inactive: 1.8%. Turning to `CN(CCCl)Cc1cc(Cl)c(NC2=NCCN2)c(Cl)c1`, the inhibition was inactive: 5.59%. Under `CCOP(=O)(NC(=NC(C)c1ccccc1)NC(C)c1ccccc1)OCC` (configuration not stated) stands inactive: 6.12%; under `O=P1(Nc2ccccn2)COc2ccccc2OC1`, inactive: 7.01%. Under `CCC1=CC2Cc3nc4ccc(Cl)cc4c(N)c3C(C1)C2` (configuration not stated) stands inactive: 17%; under `CC1(CBr)Cn2c(nc3ccccc3c2=O)S1` (configuration not stated), inactive: -10.8%. As to `O=[As](O)(c1ccccc1Br)c1ccccc1Br`, the inhibition is inactive: 3.9%. Under `CC(C)/C=N\N=C(\N)N[N+](=O)[O-]` stands inactive: 11.7%; under `CN(C(=O)Cc1ccc(Cl)c(Cl)c1)[C@@H]1CCCC[C@H]1N1CCCC1`, inactive: -8.96%. Consider `COc1ccccc1CNC(=O)COC(=O)C(O)(c1ccccc1)c1ccccc1`, for which the inhibition was inactive: 5.28%. For `O=C(/C=C/c1ccccc1)OC1CN2CCC1CC2` (configuration not stated) the value was inactive: 10.5%; for `CN(C)C1(CNC(=O)c2ccc(S(C)(=O)=O)cc2)CCCCC1`, inactive: 7.47%. Under `CC1CCC(C(C)C)C(OP(=O)(Nc2ccccn2)c2ccccc2)C1` (configuration not stated) stands inactive: 19.2%. On to `Cc1ccc(C(=O)OC2CN3CCC2CC3)cc1` (configuration not stated), for which the inhibition is inactive: 11.1%.

Regarding `Cc1nn(-c2ccccc2)c2c1P(=O)(N1CCOCC1)N(C)C(c1ccccc1)=N2` (configuration not stated), the inhibition was inactive: 1.57%.

Consider `O=[As](O)(c1cccs1)c1cccs1`, for which the inhibition is inactive: -7.03%. Under `Cc1ccc(OCC(=O)OC2CN3CCC2CC3)cc1` (configuration not stated) stands inactive: 16.9%; under `O=P1(Nc2ccc(Br)cn2)COc2ccccc2OC1`, inactive: 2.7%. Under `NS(=O)(=O)c1cccc(NC(=O)COC(=O)C(O)(c2ccccc2)c2ccccc2)c1` stands inactive: 5.73%. Under `Nc1cccc([As](=O)(O)c2ccccc2)c1` stands inactive: -12.3%; under `O=P1(Nc2ncccn2)COc2ccccc2OC1`, inactive: 5.81%; under `Nc1ccccc1[As](=O)(O)c1ccccc1`, inactive: -1.31%. Regarding `O=C(O)COc1ccc([As](=O)(O)O)cc1[N+](=O)[O-]`, the inhibition was inactive: 9.95%. Under `CS(=O)(=O)c1cc([N+](=O)[O-])c2no[n+]([O-])c2c1` stands inactive: 19%; under `O=P(Nc1nccs1)(Oc1ccccc1)Oc1ccccc1`, inactive: 3.05%. With `O=P(Nc1nccs1)(c1ccccc1)c1nc2ccccc2s1` (configuration not stated), the inhibition is inactive: -13.9%. In the case of `CCOP1(=S)c2c(C)nn(CCC#N)c2N=C(c2ccccc2F)N1C` (configuration not stated), the inhibition is inactive: 7.89%. For `CN(C(=O)Cc1ccc(Cl)c(Cl)c1)[C@H]1CC[C@@]2(CCCO2)C[C@@H]1N1CCCC1` the value was inactive: 14.2%. Regarding `O=[N+]([O-])c1ccc2c(c1)nnn2O`, the inhibition was inactive: -5.76%.
